## Measured affinities in a library of Ab-14 heavy chain variants

All variants were tested on one target, the spike HR2 peptide PDVDLGDISGINAS (SARS-CoV-2).

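The parent was found by panning a naive human phage display library on the peptide. These sequences belong to a second round, designed from the earlier measurements on random variants of the parent. Their group label is 14H_GPLM_HC (GPLM: also part of the Gaussian process libraries; HC: hill climbing; a sequence that several methods proposed may carry one label only). In AlphaSeq, yeast of one mating type display the scFv and yeast of the other type display the target. Pairs that bind mate more often; barcode pairs of the diploids are counted by sequencing. Scores were corrected for input abundance and mapped to Kd with protein pairs of known affinity run in the same pool. Each pool was mated in six replicate cultures.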

The variants keep the light chain, the linker and the frameworks of Ab-14 (scFv order VH, a (GGGGS)3 linker, VL).
VH: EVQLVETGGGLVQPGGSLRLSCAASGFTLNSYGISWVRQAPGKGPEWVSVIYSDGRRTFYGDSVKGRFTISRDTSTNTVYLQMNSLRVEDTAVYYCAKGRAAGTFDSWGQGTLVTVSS
VL: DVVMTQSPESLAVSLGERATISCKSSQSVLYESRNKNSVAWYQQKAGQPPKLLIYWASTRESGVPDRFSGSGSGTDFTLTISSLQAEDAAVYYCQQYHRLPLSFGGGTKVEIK

Changes read parent residue, position, new residue, counted from the first residue of the VH shown.
Numbers give log10(Kd / nM), so 0 is 1 nM and 3 is 1 µM. Smaller is tighter.
The mean shown is taken over the replicates in which the pair was detected.
Where no diploid with the target was found in that replicate, the entry reads "ND": below detection, most likely a poor binder, though not proof of it.
The authors averaged sequences with at least three values out of six and counted those with two or fewer as poor binders.

| changes | log10 Kd, replicates | log10 Kd (nM), mean | signal with controls |
|---|---|---|---|
| G61D S63N R100Q A101L | ND ND ND ND ND ND | ND | 0 of 18 |
| T28S S31Q G61T | 2.97 1.34 1.59 1.10 1.09 1.83 | 1.65 | 1 of 18 (1.76) |
| G61S R100K A101V A102G | ND 1.37 0.85 1.31 1.01 1.43 | 1.20 | 0 of 18 |
| T28G S31E A101E | -0.14 0.52 0.18 -0.76 -0.43 -0.08 | -0.12 | 0 of 18 |
| N30L G61D R100K A101L | ND 1.41 ND ND ND ND | 1.41 | 0 of 18 |
| S31D F59Q G61I D106E | ND ND ND ND ND ND | ND | 0 of 18 |
| G61S A101T A102G | 0.47 0.34 0.61 0.59 0.48 1.14 | 0.61 | 0 of 18 |
| S31E R56I G103V S107Q | ND ND ND ND ND ND | ND | 1 of 18 (1.60) |
| T28D G61D R100Q A101N | 0.21 0.24 0.12 0.09 -0.01 0.16 | 0.13 | 0 of 18 |
| S31N R56K G61S | 0.91 1.13 0.84 0.93 1.00 2.04 | 1.14 | 0 of 18 |
| T28S S31D A101L D106I | ND ND ND ND ND ND | ND | 0 of 18 |
| S31E G61K A101E | 0.42 -0.28 -0.52 -0.11 -0.66 -0.14 | -0.21 | 1 of 18 (0.23) |
| T28D G61S R100L A102G | ND ND 0.04 ND ND 1.62 | 0.83 | 0 of 18 |
| N30M G61D R100Q A101T | ND 1.61 ND ND 0.63 2.29 | 1.51 | 0 of 18 |
| S31E R56S G61T A101N | -0.45 -0.41 -0.52 -0.71 -0.12 -0.79 | -0.50 | 0 of 18 |
| R56V G61S A102G | 0.98 1.00 1.47 1.96 1.68 1.98 | 1.51 | 1 of 18 (1.50) |
| S31D D106S S107K | ND ND ND ND ND ND | ND | 0 of 18 |
| T28Q S31E R100Q S107D | 1.93 1.59 1.31 1.18 1.34 2.20 | 1.59 | 1 of 18 (2.02) |
| S31E R56K G61I | 1.86 0.58 1.19 1.24 1.11 1.07 | 1.18 | 0 of 18 |
| S31D G61H D106R | ND ND ND 1.68 ND ND | 1.68 | 2 of 18 (1.49) |
| S31D F59Q G61I R100H | 0.66 0.17 0.33 0.20 0.61 0.92 | 0.48 | 0 of 18 |
| S31Q G61I A101Q | 0.64 0.83 0.67 0.39 0.57 0.75 | 0.64 | 0 of 18 |
| G61T R100Q A101V | 0.99 ND 1.12 0.63 ND 1.07 | 0.95 | 0 of 18 |
| T28Q G61S R100V | 2.15 1.65 0.93 1.26 2.03 2.07 | 1.68 | 0 of 18 |
| S31D G61I T104K | ND ND ND ND ND ND | ND | 0 of 18 |
| T28G G61T R100Q | 1.36 1.15 1.16 1.30 1.17 1.33 | 1.25 | 1 of 18 (3.74) |
| S31E D106T S107F | ND ND ND ND ND ND | ND | 0 of 18 |
| S31E A101I D106I | ND ND ND ND ND ND | ND | 0 of 18 |
| G61D S63E R100Q A101L | 1.48 0.94 1.46 2.11 2.52 1.82 | 1.72 | 0 of 18 |
| G26M S31D F59Q G61I | ND ND ND ND ND ND | ND | 0 of 18 |
| R56H G61D R100Q A101L | 0.71 1.69 0.49 0.27 0.72 0.35 | 0.71 | 0 of 18 |
| T28S S31E G61S T104Q | ND ND ND ND ND ND | ND | 0 of 18 |
| T28E S31E G61S A101T | -0.05 -0.31 -0.55 -0.21 -0.37 0.62 | -0.15 | 0 of 18 |
| S31Q G61A R100Q | 0.27 0.54 -0.05 0.37 0.69 0.46 | 0.38 | 1 of 18 (1.48) |
| T28N S31E G61T A101E | 1.12 0.56 0.32 0.03 0.86 0.72 | 0.60 | 0 of 18 |
| G61S A101V A102G | 0.65 0.27 1.24 0.37 0.74 0.15 | 0.57 | 0 of 18 |
| G61K R100Q A101L | 1.21 2.30 1.32 1.00 1.17 1.30 | 1.38 | 0 of 18 |
| T28S S31Q R56K G61S | -0.03 -0.05 -0.06 -0.18 -0.24 0.02 | -0.09 | 2 of 18 (2.00) |
| F59Q G61I R100Q | ND ND ND ND ND ND | ND | 0 of 18 |
| S53A S63D R100Q D106K | 1.37 1.38 1.90 2.75 1.14 1.46 | 1.66 | 0 of 18 |

The 6 strongest on average among those seen in every replicate, once more:

{"changes": "S31E R56S G61T A101N", "log10 Kd, replicates": "-0.45 -0.41 -0.52 -0.71 -0.12 -0.79", "log10 Kd (nM), mean": "-0.50", "signal with controls": "0 of 18"}
{"changes": "S31E G61K A101E", "log10 Kd, replicates": "0.42 -0.28 -0.52 -0.11 -0.66 -0.14", "log10 Kd (nM), mean": "-0.21", "signal with controls": "1 of 18 (0.23)"}
{"changes": "T28E S31E G61S A101T", "log10 Kd, replicates": "-0.05 -0.31 -0.55 -0.21 -0.37 0.62", "log10 Kd (nM), mean": "-0.15", "signal with controls": "0 of 18"}
{"changes": "T28G S31E A101E", "log10 Kd, replicates": "-0.14 0.52 0.18 -0.76 -0.43 -0.08", "log10 Kd (nM), mean": "-0.12", "signal with controls": "0 of 18"}
{"changes": "T28S S31Q R56K G61S", "log10 Kd, replicates": "-0.03 -0.05 -0.06 -0.18 -0.24 0.02", "log10 Kd (nM), mean": "-0.09", "signal with controls": "2 of 18 (2.00)"}
{"changes": "T28D G61D R100Q A101N", "log10 Kd, replicates": "0.21 0.24 0.12 0.09 -0.01 0.16", "log10 Kd (nM), mean": "0.13", "signal with controls": "0 of 18"}

Three control strains display no target. For all heavy chain designs, 1% of the pairings with them gave a signal, with a median of 2.08 and one signal in twenty below 0.84, so weak values seen in few replicates may be background. The control count says in how many pairings with the empty strains this scFv gave a signal, with their mean in brackets.
Of ten entries with the parent sequence, four were seen in most replicates (averages 0.34 to 2.37), three in one and three in none, so single entries are noisy.
The range of this assay differs from that of the first round, and the authors advise against merging the two.

Data: MIT Lincoln Laboratory AlphaSeq set, Li et al. 2023, doi:10.1038/s41467-023-39022-2, as distributed in FLAb.